Experimental data from US20100041920A1, “NEW SALT FORMS OF AN AMINOINDAN DERIVATIVE” (priority 2008, published 2010).

Assay: Accelerated stability studies of rasagiline salts (40° C. and 75% RH; PE and AL bags)
Assay type: physicochemical
Conditions: for Purity (HPLC) 1st Month: 1 month; for Purity (HPLC) 2nd Month: 2 months
Experimental: Rasagiline salts were submitted to accelerated conditions (40° C. and 75% RH) in two types of bags: polyethylene (PE) and aluminium (AL) bags. The samples were characterized by HPLC, XRD, and visual inspection.

C#CCN[C@@H]1CCc2ccccc21.C#CCN[C@@H]1CCc2ccccc21.O=C(O)C(O)C(O)C(=O)O [Hemitartrate Form I, rasagiline L-hemitartrate]
Purity (HPLC) 1st Month (aluminium (AL) bag): 99.49%
Purity (HPLC) 2nd Month (aluminium (AL) bag): 99.55%
Purity (HPLC) 1st Month (polyethylene (PE) bag): 99.51%
Purity (HPLC) 2nd Month (polyethylene (PE) bag): 99.47%
